# According to PubChem BioAssay AID1511 (Johns Hopkins Ion Channel Center, 2009):
# Sequences of proteins named here, by UniProt entry; tags and fusion partners are left off.
# UniProt Q12809, whole entry: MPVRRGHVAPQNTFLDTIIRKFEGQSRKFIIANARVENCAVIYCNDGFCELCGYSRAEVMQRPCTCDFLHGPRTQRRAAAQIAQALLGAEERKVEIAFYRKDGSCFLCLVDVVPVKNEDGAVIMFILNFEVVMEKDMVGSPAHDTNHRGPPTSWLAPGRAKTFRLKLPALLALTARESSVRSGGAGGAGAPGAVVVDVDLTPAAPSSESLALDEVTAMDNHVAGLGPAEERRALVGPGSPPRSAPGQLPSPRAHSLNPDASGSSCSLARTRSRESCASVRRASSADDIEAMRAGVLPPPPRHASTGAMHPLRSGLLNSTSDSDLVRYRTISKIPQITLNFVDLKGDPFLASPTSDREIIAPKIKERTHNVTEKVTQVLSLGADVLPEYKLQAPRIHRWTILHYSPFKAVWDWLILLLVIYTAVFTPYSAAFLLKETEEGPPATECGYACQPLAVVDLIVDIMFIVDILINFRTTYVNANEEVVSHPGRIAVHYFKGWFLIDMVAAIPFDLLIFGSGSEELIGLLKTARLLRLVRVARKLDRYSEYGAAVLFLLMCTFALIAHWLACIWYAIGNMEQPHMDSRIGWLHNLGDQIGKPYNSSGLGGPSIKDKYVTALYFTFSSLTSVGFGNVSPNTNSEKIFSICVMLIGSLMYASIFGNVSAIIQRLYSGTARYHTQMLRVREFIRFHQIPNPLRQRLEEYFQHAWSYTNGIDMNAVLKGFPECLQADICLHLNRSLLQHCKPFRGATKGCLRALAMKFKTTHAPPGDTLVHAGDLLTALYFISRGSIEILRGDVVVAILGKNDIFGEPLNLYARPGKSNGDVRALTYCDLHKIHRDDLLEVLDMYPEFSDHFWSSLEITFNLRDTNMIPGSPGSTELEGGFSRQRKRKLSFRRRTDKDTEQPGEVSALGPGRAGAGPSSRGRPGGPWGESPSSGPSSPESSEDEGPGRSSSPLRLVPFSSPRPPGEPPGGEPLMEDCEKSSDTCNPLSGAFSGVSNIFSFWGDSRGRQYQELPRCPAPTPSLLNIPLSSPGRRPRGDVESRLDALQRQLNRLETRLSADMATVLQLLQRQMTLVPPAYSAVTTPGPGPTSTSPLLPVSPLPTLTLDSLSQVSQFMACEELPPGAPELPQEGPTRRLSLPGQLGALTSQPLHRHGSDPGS
# The entries are a selection whose mix differs from that of the whole data set. Some salts and complexes are drawn in separate pieces, as the source files them; their charges need not balance. Calls of active or inactive are those of the source.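 How the source made its calls: active means activation above the mean of controls blocked by dofetilide plus 5 SD; inactive means the rest.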
# Target: Voltage-gated inwardly rectifying potassium channel KCNH2 (Homo sapiens) (UniProt Q12809)
# Assay: PubChem AID 1511;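 further: thallium influx through hERG after potassium depolarization seen as dye fluorescence rise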
# Details: CHO-hERG, FluxOR thallium flux, dofetilide IC70 present; at 10 µM; active compounds read high
row,SMILES,"activation (rescue from dofetilide block), less the hit threshold"
1,CCOC(=O)c1ccc(NP(C)(=O)Oc2ccc(OC)cc2)cc1 (configuration not stated),inactive: -5.43%
2,O=[N+]([O-])c1cc([N+](=O)[O-])c(O)c([N+](=O)[O-])c1.c1ccc(Oc2ccncc2)cc1,inactive: 1.71%
3,CCOP(C)(=S)SCC(=O)NC(C)C(=O)O (configuration not stated),inactive: -9.12%
4,CP(=O)(Nc1ccccn1)Oc1ccc(Cl)cc1 (configuration not stated),inactive: -6.48%
5,CP(=O)(Oc1ccccc1)OC(c1ccccc1)C(F)(F)F (configuration not stated),inactive: -13.1%
6,Cc1cccc(C)c1OP(C)(=O)Nc1ccc(SC(F)(F)F)cc1 (configuration not stated),inactive: -6.77%
7,CP(=O)(Nc1ccc(SC(F)(F)F)cc1)Oc1ccc(Cl)cc1 (configuration not stated),inactive: -8.91%
8,Cc1cc(C)cc(OP(C)(=O)Nc2ccc(SC(F)(F)F)cc2)c1 (configuration not stated),inactive: -2.22%
9,CCc1ccc(OP(C)(=O)N2CCN(c3ccc([N+](=O)[O-])cc3)CC2)cc1 (configuration not stated),inactive: -10.3%
10,CP(=O)(NC(=O)Nc1ccccc1)Oc1ccccc1 (configuration not stated),inactive: 2.38%
11,CP(=S)(Nn1cnnc1)Oc1ccccc1 (configuration not stated),inactive: -7.12%
12,CP(=O)(Nc1ccccc1Br)Oc1ccccc1 (configuration not stated),inactive: -9.99%
13,COc1ccccc1OP(C)(=O)Nc1ccccc1 (configuration not stated),inactive: -2.37%
14,Cc1ccc(NP(C)(=O)Oc2ccccc2)c(C)c1 (configuration not stated),inactive: -8.32%
15,COc1ccccc1OP(C)(=O)Nc1ccc(C)cc1 (configuration not stated),inactive: -2.9%
16,CCOC(=O)c1ccc(NP(C)(=O)Oc2ccccc2)cc1 (configuration not stated),inactive: -6.2%
17,Cc1cc(C)cc(OP(C)(N)=O)c1 (configuration not stated),inactive: -8.72%
18,COc1ccc(OP(C)(=O)Nc2cccc(F)c2)cc1 (configuration not stated),inactive: -9.4%
19,COc1ccccc1OP(C)(=O)Nc1cc(Cl)ccc1C (configuration not stated),inactive: -3.67%
20,O=[N+]([O-])c1cc([N+](=O)[O-])c(Nc2cccnc2)c([N+](=O)[O-])c1,inactive: -13.5%
21,O=[N+]([O-])c1ccc2c(c1)C=Nc1ccccc1O2,inactive: -11.7%
22,Cc1cccc(C)c1OP(C)(N)=O (configuration not stated),inactive: 1.23%

row,SMILES,"activation (rescue from dofetilide block), less the hit threshold"
1,CC(C)(C)c1ccc(OP(C)(=O)Nc2ccc(SC(F)(F)F)cc2)cc1 (configuration not stated),inactive: -2.47%
2,CCN(CC)CCCOC(=O)C(O)(c1ccccc1)c1ccccc1,inactive: -7.98%
3,Cc1ccc(C)c(NP(C)(=O)Oc2ccccc2)c1 (configuration not stated),inactive: -4.23%
4,CP(=O)(Nc1cccc(Br)c1)Oc1ccccc1 (configuration not stated),inactive: -18.4%
5,Cc1cc(C)cc(OP(C)(=O)Nc2ccccn2)c1 (configuration not stated),inactive: -2.32%
6,COc1ccccc1OP(C)(=O)Nc1cccc(Br)c1 (configuration not stated),inactive: -8.34%
7,CCOC(=O)c1ccc(NP(C)(=O)Oc2cc(C)cc(C)c2)cc1 (configuration not stated),inactive: -5.38%
8,Cc1cc(C)cc(OP(C)(=O)Nc2ccc(C)cc2C)c1 (configuration not stated),inactive: -2.32%
9,CC1=NCCc2c1[nH]c1ccccc21.O=[N+]([O-])c1cc([N+](=O)[O-])c(O)c([N+](=O)[O-])c1,inactive: -7.74%
10,O=C(O)c1cccc(Nc2c([N+](=O)[O-])cc([N+](=O)[O-])cc2[N+](=O)[O-])c1,inactive: -8.11%
11,COc1ccccc1OP(C)(=O)Nc1c(C)cccc1C (configuration not stated),inactive: -6.9%
12,CN1CCCCC1COC(=O)C1(O)c2ccccc2CCc2ccccc21 (configuration not stated),inactive: -7.72%
13,CP(=O)(Nc1ccc(SC(F)(F)F)cc1)Oc1ccccc1 (configuration not stated),inactive: -6.2%
14,CCCOc1ccc(NP(C)(=O)Oc2ccc(Cl)cc2)cc1 (configuration not stated),inactive: -7.23%
15,CCOC(=O)C(CC)C1=NC(C)(C)Cc2ccccc21.O=[N+]([O-])c1cc([N+](=O)[O-])c(O)c([N+](=O)[O-])c1 (configuration not stated),inactive: -5.77%
16,O=[N+]([O-])c1cc([N+](=O)[O-])c(Nc2nnnn2CCO)c([N+](=O)[O-])c1,inactive: -16%
17,O=[N+]([O-])c1cc([N+](=O)[O-])c(-c2cnn(-c3ccccc3)c2)c([N+](=O)[O-])c1,inactive: -11.9%
18,O=[N+]([O-])c1cc([N+](=O)[O-])c(-n2nnc3ccccc32)c([N+](=O)[O-])c1,inactive: -19%
19,CP(=O)(Nc1ccc2c(c1)OCCO2)Oc1ccccc1 (configuration not stated),inactive: -6.91%
20,CP(=O)(Nc1ccc(SC(F)(F)F)cc1)Oc1ccc(F)cc1 (configuration not stated),inactive: -12.8%
21,CCOP(C)(=S)SCC(=O)NC(C)(CC)C(=O)O (configuration not stated),inactive: -2.22%
22,O=[N+]([O-])c1ccc(OP2(=O)COCCO2)cc1 (configuration not stated),inactive: -4.11%

row,SMILES,"activation (rescue from dofetilide block), less the hit threshold"
1,O=[N+]([O-])c1cc([N+](=O)[O-])c(NCC2CCS(=O)(=O)C2)c([N+](=O)[O-])c1 (configuration not stated),inactive: -8.09%
2,Cc1cc(-c2cccc3ccccc23)c(C)cn1.O=[N+]([O-])c1cc([N+](=O)[O-])c(O)c([N+](=O)[O-])c1,inactive: -8.64%
3,COc1ccc(OP(C)(=O)Nc2cccc(Br)c2)cc1 (configuration not stated),inactive: -11.4%
4,CN(C)CCOC(=O)C(O)(c1ccccc1)C1CCCCC1 (configuration not stated),inactive: -1.91%
5,COc1ccc(NP(C)(=O)Oc2ccccc2OC)cc1 (configuration not stated),inactive: 0.87%
6,CCN(CC)CCCOC(=O)C(O)(c1ccccc1)C1CCCCC1 (configuration not stated),inactive: -13.2%
7,CP(=O)(Nc1ccccc1)Oc1ccc(F)cc1 (configuration not stated),inactive: -7.41%
8,CCCCCOc1ccc(NP(C)(=O)Oc2ccc(Cl)cc2Cl)cc1 (configuration not stated),inactive: -10%
9,O=[N+]([O-])c1cc([N+](=O)[O-])c(OC2CCCCC2O)c([N+](=O)[O-])c1 (configuration not stated),inactive: -6.33%
10,CCOC(=O)c1ccc(NP(C)(=O)Oc2ccc(F)cc2)cc1 (configuration not stated),inactive: -3.47%
11,COc1ccc(OP(C)(=O)Nc2ccc(SC(F)(F)F)cc2)cc1 (configuration not stated),inactive: -5.34%
12,O=C(OC1CN2CCC1CC2)c1ccc([N+](=O)[O-])cc1 (configuration not stated),inactive: -6.55%
13,O=C(OCCN1CCN(CCOCc2ccccc2)CC1)C(O)(c1ccccc1)c1ccccc1,inactive: -9.24%
14,COc1ccc2c(c1O)-c1c(O)c(OC)cc3c1[C@H](C2)[N+](C)(C)CC3.O=[N+]([O-])c1cc([N+](=O)[O-])c([O-])c([N+](=O)[O-])c1[O-],inactive: -12.8%
15,CP(=O)(Nc1ccccc1F)Oc1ccccc1 (configuration not stated),inactive: -7.4%
16,CC(C)c1ccc(OP(C)(=O)Nc2ccc(SC(F)(F)F)cc2)cc1 (configuration not stated),inactive: -4.38%
17,O=[N+]([O-])c1cc([N+](=O)[O-])c(Nc2ccccn2)c([N+](=O)[O-])c1,inactive: -15.9%
18,Cc1c(NP(C)(=O)Oc2ccc(C(C)C)cc2)c(=O)n(-c2ccccc2)n1C (configuration not stated),inactive: -4.1%
19,COc1ccccc1OP(C)(=O)Nc1ccc(C)cc1C (configuration not stated),inactive: -12%
20,CP(=O)(Nc1ccccn1)Oc1ccccc1 (configuration not stated),inactive: -12.2%
21,CCc1ccc(OP(C)(=O)O)cc1,inactive: -6.82%
22,COc1ccccc1OP(C)(=O)Nc1ccc(Br)cc1 (configuration not stated),inactive: -12.3%

row,SMILES,"activation (rescue from dofetilide block), less the hit threshold"
1,COc1ccc(OP(C)(=O)Nc2ccccn2)cc1 (configuration not stated),inactive: -10.1%
2,CN(C)CCOC(=O)C(O)(c1ccccc1)C1CCCC1 (configuration not stated),inactive: -0.29%
3,Cc1nc2ccc3ccccc3c2o1.O=[N+]([O-])c1cc([N+](=O)[O-])c(O)c([N+](=O)[O-])c1,inactive: -17%
4,CP(=O)(OCCOc1ccccc1)OCCOc1ccccc1,inactive: -5.38%
5,CP(=O)(Nc1ccc(Cl)cc1Cl)Oc1ccccc1 (configuration not stated),inactive: -7.36%
6,Cc1cc(C)cc(OP(C)(=O)Nc2cccc(C(F)(F)F)c2)c1 (configuration not stated),inactive: -6.86%
7,COc1ccccc1OP(C)(=O)Nc1ccc(C)c(C)c1 (configuration not stated),inactive: -2.1%
8,COc1ccc(OP(C)(=O)Nc2ccccc2Br)cc1 (configuration not stated),inactive: -7.42%
9,Nc1ccc2c(ccc3cccnc32)n1.O=[N+]([O-])c1cc([N+](=O)[O-])c(O)c([N+](=O)[O-])c1,inactive: -1.42%
10,CCOC(=O)c1ccc(NP(C)(=O)Oc2ccc(Cl)cc2)cc1 (configuration not stated),inactive: -8.12%
11,CP(=O)(OC12CC3CC(CC(C3)C1)C2)OC12CC3CC(CC(C3)C1)C2,inactive: -12.2%
12,CC(C)(C)c1ccc(OP(C)(=O)O)cc1,inactive: -4.92%
13,COc1ccccc1OP(C)(=O)Nc1ccccc1Br (configuration not stated),active: 6.14%
14,CP(=O)(Nc1ccc(Cl)cc1)Oc1ccc(F)cc1 (configuration not stated),inactive: -8.29%
15,CN(C)C(=O)c1c([N+](=O)[O-])cc([N+](=O)[O-])cc1[N+](=O)[O-],inactive: -6.67%
16,COc1ccc(OP(C)(=O)Nc2ccc(Br)cc2)cc1 (configuration not stated),inactive: -1.78%
17,CCN(CC)CC(O)COC(=O)C(O)(c1ccccc1)C1CCCCC1 (configuration not stated),inactive: -16.1%
18,O=C(OCCCN1CCCC1)C(O)(c1ccccc1)C1CCCCC1 (configuration not stated),inactive: -7.47%
19,COc1ccccc1OP(C)(=O)Nc1c(C)n(C)n(-c2ccccc2)c1=O (configuration not stated),inactive: -2.24%
20,CCc1ccc(OP(C)(=O)Nc2cccnc2)cc1 (configuration not stated),inactive: -0.56%
21,CP(=O)(Oc1ccccc1)N1CCOC1=O (configuration not stated),inactive: -4.14%
